Earlier results, collected in patent US20100112059A1, “Methods, Systems and Devices for Administration of Chlorine Dioxide” (priority 2008, published 2010).

Conditions: chlorite ion/chlorous acid equilibrium; printed as pH 1.8

In the case of chlorous acid, the pKa is given as 1.8.
